Assay: Chemical profiling of BHGZD in sera (UFLC-Q-TOF-MS/MS)
Details: 30 min after the treatment of BHGZD

## isoliquiritin apioside
  quantitative detection in sera after the treatment of BHGZD: detected

Source: publication PMC9253268 (Frontiers in Immunology, 2022)
